Source: article PMC9643853, “Synthesis and evaluation of 3-alkynyl-5-aryl-7-aza-indoles as broad-spectrum antiviral agents” (Frontiers in Chemistry, 2022)

Tested on: HEp-2 cells

## dextran sulfate sodium salt [DS-10000, reference compound]
  CC50: > 50 µM
